The values below come from article PMC7436049, “Combining In Silico and In Vitro Studies to Evaluate the Acetylcholinesterase Inhibitory Profile of Different Accessions and the Biomarker Triterpenes of Centella asiatica” (Molecules, 2020).

Sequences of proteins named here, by UniProt entry; tags and fusion partners are left off. Residues count along the entry.
UniProt O42275, 24-633: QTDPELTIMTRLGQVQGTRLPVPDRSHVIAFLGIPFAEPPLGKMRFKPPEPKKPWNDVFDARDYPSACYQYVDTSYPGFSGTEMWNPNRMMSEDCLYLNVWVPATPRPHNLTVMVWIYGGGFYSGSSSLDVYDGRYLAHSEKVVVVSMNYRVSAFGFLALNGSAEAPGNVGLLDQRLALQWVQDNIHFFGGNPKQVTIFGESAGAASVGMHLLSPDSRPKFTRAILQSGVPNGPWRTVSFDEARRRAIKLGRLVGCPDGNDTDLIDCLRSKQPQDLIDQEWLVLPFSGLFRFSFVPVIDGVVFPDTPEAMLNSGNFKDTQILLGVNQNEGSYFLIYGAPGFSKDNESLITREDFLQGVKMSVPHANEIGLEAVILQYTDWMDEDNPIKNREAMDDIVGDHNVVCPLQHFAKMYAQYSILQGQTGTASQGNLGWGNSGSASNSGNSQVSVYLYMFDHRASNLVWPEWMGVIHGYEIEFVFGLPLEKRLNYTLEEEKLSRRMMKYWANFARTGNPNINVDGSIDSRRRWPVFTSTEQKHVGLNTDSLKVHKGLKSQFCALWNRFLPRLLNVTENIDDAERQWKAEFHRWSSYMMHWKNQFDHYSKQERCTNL

In this assay the target is T1, acetylcholinesterase from electrophorus electricus (Electrophorus electricus, UniProt O42275).
T1 construct: purchased Sigma–Aldrich (St. Louis, MO, USA)
It is filed as biochemical. On the procedure: All solvents were HPLC grade, purchased from Merck (Darmstadt, Germany). […] Sodium monobasic […] were purchased from Merck (Darmstadt, Germany), and acetylcholinesterase from electrophorus electricus, 5,5′-Dithiobis (2-nitrobenzoic acid), and […] were obtained from Sigma–Aldrich (St. Louis, MO, USA).
The AChE inhibitory activity was evaluated using Ellman’s method, as reported previously. Each sample (20 µL of 5 mg/mL in DMSO) was dispensed in triplicate into a 96-well microplate and mixed with 190 µL of DTNB, 20 µL of substrate (ATCI). The control wells contained 2% of DMSO instead of the extract. The enzymatic activity was measured at 412 nm every 30 s intervals for 3 min. The buffer solution was used as negative control.
The percentage inhibition (%I) of each sample and the positive control (physostigmine) was calculated using the formula:%I: [(Ac − As)/(Ac)] × 100(1) where (%I): Percentage inhibition • Ac: Absorbance of negative control • As: Absorbance of sample
The experiments were expressed as the mean ± standard error of the mean (SEM) in triplicates.

In the case of `CNC(=O)Oc1ccc2c(c1)[C@]1(C)CCN(C)[C@@H]1N2C` [Eserine, eserine, reference compound], the “AChE inhibitory activity, IC50 Values” stood at 0.05 ± 0.12 mg/L.
